# Target: wild-type human cardiac sodium channel, hNav1.5 (Homo sapiens, UniProt Q14524)
# By UniProt entry, the sequences of proteins in these tests, tags left out.
# UniProt Q14524, whole entry: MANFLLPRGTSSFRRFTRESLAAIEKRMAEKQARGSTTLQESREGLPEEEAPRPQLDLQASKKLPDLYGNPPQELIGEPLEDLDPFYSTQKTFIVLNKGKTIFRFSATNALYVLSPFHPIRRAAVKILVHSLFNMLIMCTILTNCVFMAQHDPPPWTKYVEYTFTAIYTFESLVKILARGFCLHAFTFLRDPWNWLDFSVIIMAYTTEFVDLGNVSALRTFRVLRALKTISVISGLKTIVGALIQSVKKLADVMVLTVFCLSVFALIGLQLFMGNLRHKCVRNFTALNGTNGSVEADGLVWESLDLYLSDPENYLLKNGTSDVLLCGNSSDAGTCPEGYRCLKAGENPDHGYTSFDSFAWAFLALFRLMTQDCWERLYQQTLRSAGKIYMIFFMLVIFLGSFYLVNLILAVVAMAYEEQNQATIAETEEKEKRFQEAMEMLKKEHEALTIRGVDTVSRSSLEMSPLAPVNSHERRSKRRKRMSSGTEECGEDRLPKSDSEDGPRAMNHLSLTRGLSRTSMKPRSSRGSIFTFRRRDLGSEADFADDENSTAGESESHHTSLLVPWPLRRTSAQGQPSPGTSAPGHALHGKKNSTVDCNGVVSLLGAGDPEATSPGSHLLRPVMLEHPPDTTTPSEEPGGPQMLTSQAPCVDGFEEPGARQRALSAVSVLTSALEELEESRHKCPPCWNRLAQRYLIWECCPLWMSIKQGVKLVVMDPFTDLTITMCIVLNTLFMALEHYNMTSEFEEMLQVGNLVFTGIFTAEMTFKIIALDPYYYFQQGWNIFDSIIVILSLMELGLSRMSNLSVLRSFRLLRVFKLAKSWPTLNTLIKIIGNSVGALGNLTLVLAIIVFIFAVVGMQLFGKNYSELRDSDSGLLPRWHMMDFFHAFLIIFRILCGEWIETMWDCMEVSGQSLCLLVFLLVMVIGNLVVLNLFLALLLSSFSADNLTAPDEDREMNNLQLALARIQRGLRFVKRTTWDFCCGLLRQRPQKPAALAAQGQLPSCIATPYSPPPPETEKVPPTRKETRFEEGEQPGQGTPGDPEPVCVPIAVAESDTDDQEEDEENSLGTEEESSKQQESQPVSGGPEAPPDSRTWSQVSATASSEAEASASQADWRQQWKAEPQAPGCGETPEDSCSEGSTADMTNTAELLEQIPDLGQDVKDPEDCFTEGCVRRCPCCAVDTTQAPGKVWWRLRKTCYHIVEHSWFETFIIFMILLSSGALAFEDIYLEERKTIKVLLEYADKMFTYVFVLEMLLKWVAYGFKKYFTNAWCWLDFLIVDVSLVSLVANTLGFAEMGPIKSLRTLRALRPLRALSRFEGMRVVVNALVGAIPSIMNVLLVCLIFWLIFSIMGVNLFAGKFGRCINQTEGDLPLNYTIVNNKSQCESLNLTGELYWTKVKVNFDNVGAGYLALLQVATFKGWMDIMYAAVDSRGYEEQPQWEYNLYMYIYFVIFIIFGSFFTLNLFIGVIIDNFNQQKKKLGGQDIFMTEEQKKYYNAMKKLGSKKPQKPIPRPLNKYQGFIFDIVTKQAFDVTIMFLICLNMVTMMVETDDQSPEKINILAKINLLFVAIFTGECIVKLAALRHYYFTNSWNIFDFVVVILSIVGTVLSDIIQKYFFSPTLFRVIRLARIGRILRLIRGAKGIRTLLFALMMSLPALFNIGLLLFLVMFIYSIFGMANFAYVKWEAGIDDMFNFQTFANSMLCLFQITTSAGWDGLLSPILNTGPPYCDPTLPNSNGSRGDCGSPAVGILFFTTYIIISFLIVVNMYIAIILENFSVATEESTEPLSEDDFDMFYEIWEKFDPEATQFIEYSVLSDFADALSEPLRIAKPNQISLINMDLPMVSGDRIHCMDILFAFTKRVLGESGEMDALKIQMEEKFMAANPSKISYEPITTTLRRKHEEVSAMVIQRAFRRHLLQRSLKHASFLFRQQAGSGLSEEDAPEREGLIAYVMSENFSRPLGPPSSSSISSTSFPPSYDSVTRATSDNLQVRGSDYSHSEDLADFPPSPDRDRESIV
# Assay: Late INa screening assay (PatchXpress whole cell patch clamp, late current generated with Tefluthrin or ATX II)
# Assay type: cell-based
# Details: test compound at 10 μM
# Procedure: The late sodium current (Late INa) and peak sodium current (Peak INa) assays are performed on an automated electrophysiology platform, PatchXpress 7000A (MDS Analytical Technologies, Sunnyvale, Calif.), which uses the whole cell patch clump technique to measure currents through the cell membrane of up to 16 cells at a time. The assay uses an HEK293 (human embryonic kidney) cell line heterologously expressing the wild-type human cardiac sodium channel, hNav1.5, purchased from Millipore (Billerica, Mass.). No beta subunits were coexpressed with the Na channel alpha subunit. […] Experiments are carried out at 24-27° C.
# For both the Late INa and Peak INa assays, series resistance compensation is set to 50% and whole-cell compensation is performed automatically. […] Currents through open sodium channels are automatically recorded and stored in the DataXpress2 database (MDS Analytical Technologies, Sunnyvale, Calif.). Analysis is performed using DataXpress2 analysis software and data are compiled in Excel.
# Compound stocks are routinely made in glass vials to 10 mM in dimethyl sulfoxide (DMSO). […]
# All compounds are tested to determine their activity in blocking the late sodium current. […] Baseline current in the absence of Na^+ ions is measured at the end of each experiment (after two additions of 0 Na solution—see above) and is used to calculate the percent block by compound.
smiles,measurement,value
"CN(C)CCC1=C(C(=O)OCc2ccccc2)C(c2cccc3ccccc23)n2nnnc2N1 (stereo not shown) [PT-338, benzyl 5-(2-(dimethylamino)ethyl)-7-(naphthalen-1-yl)-4,7-dihydrotetrazolo[1,5-a]pyrimidine-6-carboxylate]",Late INa % blk,56.3%
